Legend:
[1] = test system: HeLa human cervical cancer cells; test: Growth inhibition (proliferation) MTT assay on HeLa cells; assay type: cell-based; details: 96 h (Figure 1 legend; table footnote prints 120 h)
[2] = test system: HeLa human cervical cancer cells; test: Combination growth inhibition assay and Combination Index on HeLa cells; assay type: cell-based; details: preliminary experiment turmeric plus carrageenan; after sonication; 96 h; MTT; read-out: IC50 alone on HeLa cells

How did the “IC50, growth inhibitory activity on HeLa cells” value [1] turn out when lambda carrageenan was run?
The value was “greater than 100 µg/mL”.

What about the IC50 [2] of the same substance?
The IC50 was ~2000 nM.

Source: PMC11768664 (Viruses, 2024)
